We go through two substances from US6534629B1, “Nematode-extracted serine protease inhibitors and anticoagulant proteins” (priority 1994, dated 2003).

Sequences of proteins named here, by UniProt entry; tags and fusion partners are left off. Residues count along the entry.
UniProt P08709, 61-212: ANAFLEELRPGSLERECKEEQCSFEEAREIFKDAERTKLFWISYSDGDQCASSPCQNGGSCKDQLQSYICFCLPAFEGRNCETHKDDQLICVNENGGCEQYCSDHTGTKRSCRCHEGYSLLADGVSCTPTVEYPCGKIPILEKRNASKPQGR
UniProt P08709, 213-466: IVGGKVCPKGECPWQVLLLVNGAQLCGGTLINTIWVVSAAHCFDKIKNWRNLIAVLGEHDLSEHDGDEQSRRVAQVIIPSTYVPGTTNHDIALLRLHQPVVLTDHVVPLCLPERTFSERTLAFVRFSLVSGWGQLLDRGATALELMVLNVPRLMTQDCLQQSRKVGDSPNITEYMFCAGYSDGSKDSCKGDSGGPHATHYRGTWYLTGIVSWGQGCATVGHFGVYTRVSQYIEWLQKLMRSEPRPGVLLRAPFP
UniProt P00742, 41-179 partner: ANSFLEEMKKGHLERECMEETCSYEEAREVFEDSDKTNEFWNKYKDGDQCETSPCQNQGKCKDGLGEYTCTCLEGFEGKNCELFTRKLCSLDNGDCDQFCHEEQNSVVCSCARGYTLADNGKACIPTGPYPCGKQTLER
UniProt P00742, 235-488 partner: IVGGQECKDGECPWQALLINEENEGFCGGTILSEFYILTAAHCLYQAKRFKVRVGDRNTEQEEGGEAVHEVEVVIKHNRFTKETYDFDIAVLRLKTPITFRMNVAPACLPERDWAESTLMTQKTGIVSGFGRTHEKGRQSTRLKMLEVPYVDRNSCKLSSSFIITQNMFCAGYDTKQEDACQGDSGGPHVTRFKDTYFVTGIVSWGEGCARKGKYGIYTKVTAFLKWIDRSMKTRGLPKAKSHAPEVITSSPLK

Like-named read-outs stand apart in the source and are kept apart here.

What is called Ki is a dissociation constant, usually derived from enzyme kinetics or from competition with a known ligand.

Common to all, as to assay type: biochemical
Experiment [1] addresses T1, human rFVIIa/rTF/PLV complex (Homo sapiens, UniProt P08709).
T1 construct: Lyophilized, purified, recombinant human factor VIIa was obtained from BiosPacific, Inc; purchased rFVIIa: BiosPacific, Inc. (Emeryville, Calif.); rTF: made in house (Corvas International, Inc.) in a baculovirus expression system; host or cells: rTF: baculovirus-expression system
Description: fVIIa/TF fIX activation assay (3H-FIX). The protocol:
This Example measures the ability of NAPs of the present invention to act as an inhibitor of the catalytic complex of fVIIa/TF, which has a primary role in initiation of the coagulation response in the ex vivo prothrombin time assay (Example B). Activation of tritiated Factor IX by the rFVIIa/rTF/PLV complex was assessed by determining the respective intrinsic inhibition constant, Ki*.
Lyophilized, purified, recombinant human factor VIIa was obtained from BiosPacific, Inc. (Emeryville, Calif.), and reconstituted in HBS (10 mM HEPES, pH 7.5, 150 mM sodium chloride) prior to use. Purified human Factor X was obtained from Enzyme Research Laboratories, Inc. (South Bend, Ind.) and Factor Xa (free FXa) was activated and prepared from Factor X as described (Bock, P. E., Craig, P. A., Olson, S. T., and Singh, P. Arch. Biochem. Biophys. 273: 375-388 (1989)). Active site-blocked human Factor Xa (EGR-FXa), which had been irreversibly inactivated with L-Glutamyl-L-glycyl-L-arginyl chloromethylketone, was obtained from Haematologic Technologies, Inc. (Essex Junction, Vt.). Recombinant human tissue factor (rTF) was produced by a baculovirus-expression system, and purified to homogeneity by monoclonal antibody affinity chromatography (Corvas International, Inc., San Diego, Calif.).
The purified rTF apoprotein was incorporated into phospholipid vesicles (rTF/PLV), consisting of phosphotidyl choline (75%, w/v) and phosphotidyl serine (25%, w/v) in the presence of detergent, as described by Ruf et al. (Ruf, W., Miles, D. J., Rehemtulla, A., and Edgington, T. S. Methods in Enzymology 222: 209-224 (1993)). The phospholipids were purchased from Avanti Polar Lipids, (Alabaster, Ala.). The buffer used for all assays was HBSA, HBS containing 0.1% (w/v) bovine serum albumin. All reagents were obtained from Sigma Chemical Cb. (St. Louis, Mo.), unless otherwise indicated.
The activation of human ^3H-Factor IX (FIX) by the rFVIIa/rTF complex was monitored by measuring the release of the radiolabelled activation peptide. Purified human fIX was obtained from Haematologic Technologies, Inc. (Essex Junction, Vt.), and radioactively labelled by reductive tritiation as described (Van Lenten & Ashwell, 1971, JBC 246, 1889-1894). […] The radiospecific activity was 2.7×10^8 dpm/mg. […]
At specific time points (8, 16, 24, 32, and 40 min), 80 μl of the reaction mixture was added to an eppendorf tube that contained an equal volume of 50 mM EDTA in HBS with 0.5% BSA to stop the reaction; this was followed by the addition of 160 μL of 6% (w/v) trichloroacetic acid. […] The radioactivity contained in the resulting supernatant was measured by removing triplicate aliquots that were added to Scintiverse BD (Fisher Scientific, Fairlawn, N.J.), and quantitated by liquid scintillation counting. […]

Experiment [2] deals with T2, human fXa incorporated into a prothrombinase complex (Homo sapiens, UniProt P00742).
T2 construct: a preformed complex of human FXa, human Factor Va (FVa), and phospholipid vesicles; FVa: Haematologic Technologies, Inc. (Essex Junction, Vt.)
Description: Prothrombinase inhibition assay. Particulars: activation of prothrombin by prothrombinase complex; FXa 250 fM, prothrombin 250 nM. How it is done: The ability of NAP of the present invention to act as an inhibitor of the activation of prothrombin by Factor Xa that has been assembled into a physiologic prothrombinase complex was assessed by determining the respective inhibition constant, Ki*.
Prothrombinase activity was measured using a coupled amidolytic assay, where a preformed complex of human FXa, human Factor Va (FVa), and phospholipid vesicles first activates human prothrombin to thrombin. The amidolytic activity of the generated thrombin is measured simultaneously using a chromogenic substrate. Purified human FVa was obtained from Haematologic Technologies, Inc. (Essex Junction, Vt.). Purified human prothrombin was purchased from Celsus Laboratories, Inc. (Cincinnati, Ohio). […]
The prothrombinase activity of fXa was measured as an increase in the absorbance at 405 nm over 10 min (velocity); exactly as described in Example A, under steady-state conditions. The absorbance increase was sigmoidal over time, reflecting the coupled reactions of the activation of prothrombin by the FXa-containing prothrombinase complex, and the subsequent hydrolysis of Pefachrome tPA by the generated thrombin. The data from each well of a triplicate were combined and fit by reiterative, linear least squares regression analysis, as a function of absorbance versus time^2, as described [Carson, S. D. Comput. […]

For the next experiment, the target named is T3, human factor Xa (Homo sapiens, UniProt P00742).
T3 construct: Factor Xa enzyme diluted in HBSA (prepared from purified human factor X obtained from Enzyme Research Laboratories)
Description: Factor Xa amidolytic assay. The note with it: free human FXa 0.5 nM, substrate S2765 250 micromolar, 30 minute incubation. The protocol:
The ability of NAPs of the present invention to act as inhibitors of factor Xa catalytic activity was assessed by determining the NAP-induced inhibition of amidolytic activity catalyzed by the human enzyme, as represented by Ki* values.
The buffer used for all assays was HBSA (10 mM HEPES, pH 7.5, 150 mM sodium chloride, 0.1% bovine serum albumin). All reagents were from Sigma Chemical Co. (St. Louis, Mo.), unless otherwise indicated.
The assay was conducted by combining in appropriate wells of a Corning microtiter plate, 50 microliters of HBSA, 50 microliters of the test NAP compound diluted (0.025-25 nM) in HBSA (or HBSA alone for uninhibited velocity measurement), and 50 microliters of the Factor Xa enzyme diluted in HBSA (prepared from purified human factor X obtained from Enzyme Research Laboratories (South Bend, Ind.) according to the method described by Bock, P. E. et al., Archives of Biochem. Biophys. 273: 375 (1989). The enzyme was diluted into HBSA prior to the assay in which the final concentration was 0.5 nM). […] The initial velocity of chromogenic substrate hydrolysis was measured by the change in absorbance at 405 nm using a Thermo Max® Kinetic Microplate Reader (Molecular Devices, Palo alto, Calif.) over a 5 minute period in which less than 5% of the added substrate was utilized. […]

Where [3] appears, read: No FXa Addition, read-out: Ki* (pM) 3H-FIX Activation, No FXa Addition.

Consider “AcaNAP6: NAP of Ancylostoma caninum, SEQ. ID. NO. 6; recombinant, made in Pichia pastoris”, for which the Ki in experiment [1] (+EGR-FXa (300 pM), read-out: Ki* (pM) 3H-FIX Activation, +EGR-FXa) is more than 1500 pM; in experiment [1] (+free FXa (300 pM), read-out: Ki* (pM) 3H-FIX Activation, +free FXa), more than 1500 pM; in experiment [1] (setting [3]), more than 1500 pM.

As to “AcaNAPc2: NAP of Ancylostoma caninum isolated by phage display, SEQ. ID. NO. 59; fVIIa/TF inhibitor”, the Ki in experiment [2] is 2.39 ± 0.283 nM; with human factor Xa, more than 1000 nM; in experiment [1] (setting [3]) it was more than 1500 pM.
